This is a sample that favours compounds with a hit; in the whole collection about 1.3% have one here.
F508del corr: F508del CFTR correction, initial screen, CFBE line, single point; CFBE cells, YFP halide quenching; stimulated with forskolin plus potentiator P3; % fluorescence drop versus neutral controls; activity (quench increase), % at 7.58 µM; 350,000 compounds, 0.36% hits;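 active = mean added fluorescence quench of at least 8% versus neutral control, with both replicates also reaching 8%; inconclusive = only one of the mean or replicate conditions met; inactive = mean below 8% and not both replicates reaching 8%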;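 note: cells transiently co-express mutant CFTR-F508del with the halide-sensitive YFP; corrector assay measuring rescue of mutant channel to the surface after 24 h compound exposure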
LGR2 antag: inhibitors of bursicon-induced LGR2 CRE-luciferase signal, primary screen, cell-based, HEK293, CRE-luciferase reporter, bursicon stimulation. Drosophila bursicon receptor LGR2 (rickets). bursicon-stimulated, 4 h. 380,000 compounds, 0.35% hits. inhibition, % at 9.99 µM. AID 720647, 2013;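 active = drop in luminescence signal, shown as inhibition above about 50% in the replicate tests, limit read from the data, passing the limit was not always enough; inconclusive = probably only some replicates passing the limit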;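 note: agonist challenge used bursicon conditioned medium at about half maximal strength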
PglD DTNB: C. jejuni PglD acetyltransferase inhibitors, primary screen, biochemical, DTNB colorimetric, single point; purified PglD enzyme, DTNB colorimetric CoA detection; inhibition, % at 12.5 µM; 360,000 compounds, 0.098% hits; AID 602405, 2012; in the data active = inhibition above about 16%, passing the limit was not always enough; inconclusive = no clear call, values can overlap the other calls
miR122 inh: miR-122 Renilla sensor signal increase in Huh7, primary screen, miR-122 inhibitor project, cell-based, single point, plate reader | Huh7 miR-122 Renilla luciferase sensor, 48 h; neutral wells = 0, positive control = 100 | 340,000 compounds, 0.3% hits | activation (reporter increase), % at 12.5 µM | AID 602342, 2012;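 active = mean replicate activation score at least 90 and every replicate individually at or above 90; inconclusive = only one of the two criteria met; inactive = neither criterion met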;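 note: higher luciferase means less miR-122 activity so hits act as miR-122 inhibitors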
EWS-Fli block: EWS/Fli-driven NR0B1 reporter inhibitors, primary screen, A673 cells, NR0B1 luciferase, luminescence, MLPCN library; AID 651661, 2012; viability-normalised; 350,000 compounds, 0.67% hits; inhibition, % at 12.6 µM;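 active = mean inhibition of at least 50% after viability correction, with every replicate also passing that limit; inconclusive = mean reaches 50% but only one of two replicates passes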;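 note: firefly luciferase signal divided by Alamar Blue viability fluorescence both relative to DMSO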
Yeast UUG start: modulators of start codon recognition fidelity in yeast; AID 602363; activity score, % at 18.7 µM; S. cerevisiae UUG-firefly luciferase reporter, luminescence/redox ratio; 0.13% of 350,000 active;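 active = replicate mean at a twofold rise or more, about +100% in these data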;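 note: firefly luciferase made from a UUG start codon reports start codon fidelity; reporter light over untreated wells divided by growth signal over untreated wells; some hits fall short of that in this replicate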
Of the large screens only hits and unclear results are named; the others gave an inactive call; ! = not confirmed by another sample.

CCOc1ccc(C(=O)Nc2nc(C)c(C(=O)OC)s2)cc1	EWS-Fli block 73.1
CCOC(=O)c1sc(Nc2nc(C)cc(C)n2)nc1C	F508del corr 12.9, EWS-Fli block 53.9 (no result: PglD DTNB, miR122 inh, Yeast UUG start)
COC(=O)c1sc(NC(=O)c2ccncc2)nc1C	none
CC(=O)c1ccc(Nc2cnn(C34CC5CC(CC(CC(=O)O)(C5)C3)C4)c(=O)c2Cl)cc1	none
O=C(CCc1ccccc1)NC(=S)Nc1ccc2c(c1)C(=O)OC2	none (no result: PglD DTNB, miR122 inh, Yeast UUG start)
C[C@@H]1CCCCO[C@@H](CN(C)C(=O)C2CCCCC2)[C@@H](C)CN([C@H](C)CO)C(=O)c2cc(NC(=O)Nc3ccc(F)cc3)ccc2O1	none
COC(=O)c1ccc2nc(Nc3nc4ccc(F)cc4s3)sc2c1	EWS-Fli block 76.7 (no result: F508del corr, LGR2 antag)
COC(=O)c1ccc2nc(NC(=O)C3CCCCC3)sc2c1	none (no result: F508del corr, PglD DTNB, miR122 inh, Yeast UUG start)
COC(=O)c1ccc2nc(NC(=O)C(C)(C)C)sc2c1	LGR2 antag 64.3, EWS-Fli block 54.5 (no result: PglD DTNB, miR122 inh, Yeast UUG start)
CC(=O)N1CCC(C(=O)Nc2ccc(S(=O)(=O)N3CCC(C)CC3)cc2)CC1	none (no result: miR122 inh, EWS-Fli block)
COc1cc2c(cc1OC)C(c1cc(Br)ccc1F)N(C(=O)CCl)CC2 (configuration not stated)	EWS-Fli block 58.4 (no result: miR122 inh)
Cc1cccn2c(=O)c3cc(S(=O)(=O)c4ccc(F)cc4)c(=N)n(Cc4ccco4)c3nc12	LGR2 antag 53.4
Cc1cccn2c(=O)c3cc(S(=O)(=O)c4ccccc4)c(=N)n(Cc4ccco4)c3nc12	none
CC1CCCC=CC2CC(OC(=O)CN(C)C)CC2C(O)C=CC(=O)O1 (configuration not stated)	EWS-Fli block 62.7 (no result: LGR2 antag, PglD DTNB, Yeast UUG start)
N#CC1=C(N)Oc2cc3ccccc3cc2C1c1cccs1 (configuration not stated)	none (no result: F508del corr, LGR2 antag, PglD DTNB, EWS-Fli block)
CN(C)/C=N/C1=C(C#N)C(c2cccs2)c2ccc3ccccc3c2O1 (configuration not stated)	F508del corr inconclusive, EWS-Fli block 54.0 (no result: PglD DTNB, miR122 inh, Yeast UUG start)
C[n+]1cc2c3c(ccc2c2ccc4cc5c(cc4c21)OCO5)OCO3	LGR2 antag 100.5, EWS-Fli block 59.0 (no result: PglD DTNB, miR122 inh, Yeast UUG start)
Cc1cc(C)n(CC(=O)NNC(=O)c2ccc(NC(=O)CC#N)cc2)n1	none
CN(C)C(=O)c1ccc(-c2ccc(C3[C@@H]4CN(C(=O)c5ccccn5)C[C@H]3N4)cc2)cc1 (some centres not stated)	none (no result: PglD DTNB, miR122 inh, Yeast UUG start)
O=C(c1ccc2c(c1)OCO2)N1C[C@@H]2N[C@H](C1)C2c1ccc(-c2cccnc2)cc1 (some centres not stated)	EWS-Fli block 64.2! (no result: PglD DTNB, miR122 inh, Yeast UUG start)
CN(C)C(=O)c1cccc(-c2ccc(C3[C@@H]4CN(C(=O)c5ccccn5)C[C@H]3N4)cc2)c1 (some centres not stated)	EWS-Fli block 57.6! (no result: PglD DTNB, miR122 inh, Yeast UUG start)
CN(C)C(=O)c1ccc(-c2ccc(C3[C@@H]4CN(Cc5nccs5)C[C@H]3N4)cc2)cc1 (some centres not stated)	EWS-Fli block 53.0! (no result: PglD DTNB, miR122 inh, Yeast UUG start)
O=C(c1ccc2c(c1)OCO2)N1C[C@@H]2N[C@H](C1)C2c1ccc(-c2ccncc2)cc1 (some centres not stated)	none (no result: PglD DTNB, miR122 inh, Yeast UUG start)
CCc1ccc(NC(=O)c2ccc3c(c2)CCN3S(C)(=O)=O)cc1	none
NS(=O)(=O)c1ccc2nc(NC(=O)c3ccc4c(c3)OCCO4)sc2c1	F508del corr 8.9
O=C(Nc1nc2ccc(F)cc2s1)C1=COCCO1	LGR2 antag 62.8, EWS-Fli block 68.7
CSc1cccc2sc(NC(=O)C3=COCCO3)nc12	none
O=C(Nc1nc2cc3c(cc2s1)OCCO3)C1=COCCO1	LGR2 antag 99.6, EWS-Fli block 89.3
O=C(Nc1nc2ccc(F)cc2s1)c1ccccn1	LGR2 antag 90.2, EWS-Fli block 83.8 (no result: PglD DTNB, miR122 inh, Yeast UUG start)
NS(=O)(=O)c1ccc2nc(NC(=O)c3ccc4ncsc4c3)sc2c1	none (no result: F508del corr, LGR2 antag, EWS-Fli block)
CCCN1CN(c2ccccc2)C(=S)N(c2ccccc2)C1	none
CC(C)(C)OC(=O)C[C@@H]1C/C=C\C[C@H](CC(=O)NCCO)C(=O)NC[C@@H](c2ccccc2)OC1=O	none
S=C(NCCc1ccccc1)N1CCC2CC1c1c(Cl)cccc12 (configuration not stated)	none
CCSc1nc(COC(=O)NC)c(COC(=O)NC)n1C	none (no result: LGR2 antag, PglD DTNB, Yeast UUG start)
CNC(=O)OCc1nc(SSC(C)(C)C)n(C)c1COC(=O)NC	EWS-Fli block 66.7 (no result: PglD DTNB, Yeast UUG start)
COc1ccccc1NC(=O)N1C[C@@H]2N[C@H](C1)C2c1ccc(-c2cccc(C#N)c2)cc1 (some centres not stated)	EWS-Fli block 52.9! (no result: PglD DTNB, miR122 inh, Yeast UUG start)
COc1cccc(-c2ccc(C3[C@@H]4CN(C(=O)C5CCC5)C[C@H]3N4)cc2)c1 (some centres not stated)	none (no result: PglD DTNB, miR122 inh, Yeast UUG start)
COc1cccc(-c2ccc(C3[C@@H]4CN(C(=O)C5CC5)C[C@H]3N4)cc2)c1 (some centres not stated)	LGR2 antag 62.3! (no result: PglD DTNB, miR122 inh, Yeast UUG start)
O=C(C[C@H]1C[C@H](C(=O)N2CCOCC2)[C@@]2(CCC3CCCC3)c3[nH]c4ccc(Cl)cc4c3CCN2C1=O)NCCN1CCOCC1	none
Cc1ccc(NS(=O)(=O)c2cc(Br)cnc2N)cc1C	miR122 inh 144.2
CSc1cccc(NS(=O)(=O)c2ccccc2)c1	none (no result: F508del corr, LGR2 antag, EWS-Fli block)
CSc1cccc(NS(=O)(=O)c2cc(Br)cnc2N)c1	miR122 inh 106.0
Nc1ncc(Br)cc1S(=O)(=O)NC1CCCCC1	miR122 inh 126.0 (no result: EWS-Fli block)
Nc1ncc(Br)cc1S(=O)(=O)NCCc1ccccc1	miR122 inh 105.5
CCc1ccccc1NC(=O)CCNS(=O)(=O)c1cc(Br)cnc1N	none
Cc1cc(C)cc(NC(=O)CCNS(=O)(=O)c2cc(Br)cnc2N)c1	none (no result: EWS-Fli block)
Cc1cc(C)cc(NS(=O)(=O)c2cc(Br)cnc2N)c1	miR122 inh 97.7
Cc1ccc(N(C)c2nc(N)nc(N)c2N=O)cc1	F508del corr 9.9 (no result: PglD DTNB, miR122 inh, Yeast UUG start)
Cc1cccc(Nc2nc(N)nc(N)c2N=O)c1	none
CCn1c(SC(C)C(=O)NCC2CCCO2)nc2ccccc21 (configuration not stated)	F508del corr 14.6 (no result: miR122 inh)
CCn1c(SC(C)C(=O)NCC2CCCO2)nc2scc(-c3ccccc3)c2c1=O (configuration not stated)	none (no result: PglD DTNB, miR122 inh, Yeast UUG start)
C=CC[C@@H](CC(=O)N[C@@H](CO)Cc1ccccc1)C(=O)NCCOC(=O)[C@@H](CC=C)Cc1ccc(F)cc1	none (no result: miR122 inh)
COc1ccc(OC)c(C2CC(c3ccccc3)=NN2C(=S)Nc2ccccc2)c1 (configuration not stated)	F508del corr 11.5, EWS-Fli block 52.3 (no result: PglD DTNB, miR122 inh, Yeast UUG start)
CCC(C)(C(=O)Nc1c(C)cccc1C)N(C)C(=O)c1ccc2ccccc2n1 (configuration not stated)	none

Source: PubChem BioAssay
